According to patent publication US20100093623A1, “COMPOSITIONS AND METHODS FOR […]-LIKE RECEPTOR ACTIVITY AND USES THEREOF” (Burnham Institute for Medical Research, priority 2008, published 2010):

Molecular target: T1, NLRP1 (Homo sapiens, UniProt Q9C000)
T1 sequence (Q9C000 1-1473): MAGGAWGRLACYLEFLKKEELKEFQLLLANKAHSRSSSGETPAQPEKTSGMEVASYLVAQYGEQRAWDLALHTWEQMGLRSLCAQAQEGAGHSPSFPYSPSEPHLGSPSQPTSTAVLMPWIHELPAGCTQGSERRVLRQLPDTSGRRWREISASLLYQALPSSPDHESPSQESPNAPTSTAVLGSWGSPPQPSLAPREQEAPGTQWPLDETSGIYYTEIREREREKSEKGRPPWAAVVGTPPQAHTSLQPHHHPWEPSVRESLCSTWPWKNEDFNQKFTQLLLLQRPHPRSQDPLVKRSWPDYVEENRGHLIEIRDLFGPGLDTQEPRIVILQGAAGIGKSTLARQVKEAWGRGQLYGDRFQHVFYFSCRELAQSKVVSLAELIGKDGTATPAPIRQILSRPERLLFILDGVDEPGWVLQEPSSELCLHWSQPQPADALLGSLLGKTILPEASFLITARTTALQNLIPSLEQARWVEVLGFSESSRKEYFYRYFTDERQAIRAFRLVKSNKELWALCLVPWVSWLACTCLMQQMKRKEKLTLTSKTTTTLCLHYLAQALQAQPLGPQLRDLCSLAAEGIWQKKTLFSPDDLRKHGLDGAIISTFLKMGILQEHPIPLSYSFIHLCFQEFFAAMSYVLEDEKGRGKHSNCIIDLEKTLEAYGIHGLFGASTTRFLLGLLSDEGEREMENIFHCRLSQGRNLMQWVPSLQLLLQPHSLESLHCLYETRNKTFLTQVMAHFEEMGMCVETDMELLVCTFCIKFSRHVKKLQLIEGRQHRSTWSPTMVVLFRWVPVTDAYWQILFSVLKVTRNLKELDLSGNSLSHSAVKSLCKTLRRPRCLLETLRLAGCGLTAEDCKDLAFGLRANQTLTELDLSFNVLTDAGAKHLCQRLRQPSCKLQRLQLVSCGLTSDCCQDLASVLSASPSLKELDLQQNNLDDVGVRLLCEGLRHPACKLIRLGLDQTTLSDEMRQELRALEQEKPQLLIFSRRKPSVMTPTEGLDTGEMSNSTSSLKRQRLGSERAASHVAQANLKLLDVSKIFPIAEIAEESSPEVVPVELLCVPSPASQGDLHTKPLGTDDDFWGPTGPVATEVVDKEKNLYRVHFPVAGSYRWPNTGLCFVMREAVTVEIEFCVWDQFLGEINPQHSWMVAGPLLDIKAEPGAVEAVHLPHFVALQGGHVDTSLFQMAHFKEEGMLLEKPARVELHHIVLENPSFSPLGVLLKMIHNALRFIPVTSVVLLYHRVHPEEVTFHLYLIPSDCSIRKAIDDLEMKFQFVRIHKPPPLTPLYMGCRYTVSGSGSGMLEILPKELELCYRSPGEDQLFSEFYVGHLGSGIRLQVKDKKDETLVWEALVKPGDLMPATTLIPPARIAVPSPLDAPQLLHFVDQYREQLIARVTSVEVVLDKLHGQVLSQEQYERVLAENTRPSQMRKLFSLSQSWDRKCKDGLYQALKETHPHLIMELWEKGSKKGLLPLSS
Assay: in vitro reconstituted NLRP1 inflammasome: Caspase-1 activity by hydrolysis of Ac-WEHD-AMC
Type: biochemical
Details: peptide 50 nM; NLRP1 8.5 nM, pro-Caspase-1 8.5 nM, ATP, Mg2+, MDP

Row | Substance | NLRP1-mediated Caspase-1 activation (Caspase-1 activity)
1 | DAGDVGAAPPGAAPAPGIFS (Synthetic Bcl-2 Loop peptide) [Bcl-2 31-50] | inactive
2 | GAAPAPGIFSSQPGHTPHPA (Synthetic Bcl-2 Loop peptide) [Bcl-2 41-60] | inactive
3 | PLQTPAAPGAAAGPALSPVP [Bcl-2 71-90] | sufficient to potently inhibit NLRP1
4 | VGAAPPGAAPAPGIFSSQPGHTPHPAASRDPVARTSPLQTPAAPGAAAG [Bcl-2 Loop 35-83] | inhibited NLRP1-mediated Caspase-1 activation to nearly baseline levels

Same assay, conditions: protein or peptide 17 nM; NLRP1 8.5 nM, pro-Caspase-1 8.5 nM, ATP, Mg2+, MDP

Row | Substance | NLRP1-mediated Caspase-1 activation (Caspase-1 activity)
5 | Bcl-2: anti-apoptotic protein; recombinant GST-fusion lacking C-terminal transmembrane domain (SEQ ID NO:3/4) | suppress in vitro reconstituted NLRP1 inflammasome
6 | Bcl-XL: anti-apoptotic protein; recombinant GST-fusion lacking C-terminal transmembrane domain | suppress in vitro reconstituted NLRP1 inflammasome

No end group written: not given here.
